Results published in US20230212174A1, “PYRROLO[2,1-F][1,2,4]TRIAZINE DERIVATIVE AND USE THEREOF” (Tencent Technology (Shenzhen) Company Limited, priority 2021, published 2023).

Sequences of proteins named here, by UniProt entry; tags and fusion partners are left off.
UniProt P33981, whole entry: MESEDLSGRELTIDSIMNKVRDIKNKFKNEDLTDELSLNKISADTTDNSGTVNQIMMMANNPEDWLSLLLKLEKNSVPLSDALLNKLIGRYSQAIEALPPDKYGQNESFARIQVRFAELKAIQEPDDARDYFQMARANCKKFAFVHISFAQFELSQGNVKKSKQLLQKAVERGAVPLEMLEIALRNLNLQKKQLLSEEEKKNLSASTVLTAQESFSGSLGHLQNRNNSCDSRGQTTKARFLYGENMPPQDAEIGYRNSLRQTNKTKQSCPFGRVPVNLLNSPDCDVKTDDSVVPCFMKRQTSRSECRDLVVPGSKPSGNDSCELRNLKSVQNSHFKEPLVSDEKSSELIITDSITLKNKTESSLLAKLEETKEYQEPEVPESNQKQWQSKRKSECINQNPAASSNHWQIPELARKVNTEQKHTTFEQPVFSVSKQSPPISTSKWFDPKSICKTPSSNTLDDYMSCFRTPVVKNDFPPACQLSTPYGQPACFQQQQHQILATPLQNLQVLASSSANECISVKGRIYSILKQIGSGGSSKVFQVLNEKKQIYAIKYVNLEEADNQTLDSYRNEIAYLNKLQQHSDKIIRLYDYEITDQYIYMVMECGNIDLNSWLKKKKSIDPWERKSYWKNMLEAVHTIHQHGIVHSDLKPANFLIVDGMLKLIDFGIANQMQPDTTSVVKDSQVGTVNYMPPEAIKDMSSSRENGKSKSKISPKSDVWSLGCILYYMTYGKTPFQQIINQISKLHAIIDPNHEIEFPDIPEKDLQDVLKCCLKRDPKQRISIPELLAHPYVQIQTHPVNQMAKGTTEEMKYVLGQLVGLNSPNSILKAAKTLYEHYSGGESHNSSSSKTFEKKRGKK

Biological target: TTK (Homo sapiens, UniProt P33981)
Test: TTK inhibitory activity (kinase reaction, Fluorescein-PolyGT substrate, antibody/EDTA stop, Envision read)
Conditions: read-out: TTK IC50; 0.5 nM TTK, 7 uM ATP, 0.2 uM Fluorescein-PolyGT, 28° C., 30 min

CCOc1cc(-c2nncn2C)ccc1Nc1ncc2ccc(C3=CCCCC3)n2n1
IC50: 2.4 nM
